Source: US9315514B2, “1,3-dioxanomorphides and 1,3-dioxanocodides” (dated 2016)

Sequences of proteins named here, by UniProt entry; tags and fusion partners are left off. A change or cut given only in a name is not applied to a line headed by its entry.
UniProt P41146: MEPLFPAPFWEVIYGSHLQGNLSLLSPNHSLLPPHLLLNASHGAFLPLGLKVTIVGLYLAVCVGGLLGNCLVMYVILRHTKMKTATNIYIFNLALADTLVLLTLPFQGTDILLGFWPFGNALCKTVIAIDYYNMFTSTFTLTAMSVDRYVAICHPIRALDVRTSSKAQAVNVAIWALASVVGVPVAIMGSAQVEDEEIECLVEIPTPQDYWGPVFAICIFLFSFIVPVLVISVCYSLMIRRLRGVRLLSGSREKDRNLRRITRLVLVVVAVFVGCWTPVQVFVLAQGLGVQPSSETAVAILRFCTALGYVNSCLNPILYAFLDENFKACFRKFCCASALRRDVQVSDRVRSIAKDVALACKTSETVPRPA

Columns and labels:
ORL-1 receptor = ORL-1 receptor (Homo sapiens (Human), UniProt P41146); assay: ORL-1 receptor activity in PerkinElmer ligand binding and cellular assays
[1] = water, 9 mol equivalents of HCl, 45° C., followed for 1 and 7 days

Compound | ORL-1 receptor activity (ORL-1 receptor) | stability in acidic conditions [1]
C=CCN1CC[C@]23c4c5ccc(O)c4O[C@H]2[C@@]24CC[C@@]3(C[C@@H]2[C@@](C)(C(C)(C)C)OCO4)[C@H]1C5 | shown ORL-1 receptor activity | –
CC(C)(C)[C@@]1(C)OCO[C@]23CC[C@@]4(C[C@@H]21)[C@H]1Cc2ccc(O)c5c2[C@@]4(CCN1CC1CC1)[C@H]3O5 [listing 1 of 2 here] | shown ORL-1 receptor activity | –
CC(C)(C)[C@@]1(C)OCO[C@]23C=C[C@@]4(C[C@@H]21)[C@H]1Cc2ccc(O)c5c2[C@@]4(CCN1CC1CC1)[C@H]3O5 | shown ORL-1 receptor activity | –
CC(C)(C)[C@@]1(C)OCO[C@]23CC[C@@]4(C[C@@H]21)[C@H]1Cc2ccc(O)c5c2[C@@]4(CCN1CC1CC1)[C@H]3O5 [listing 2 of 2 here] | – | remained essentially stable
